Assay results: US9783488B2 (CHDI Foundation, Inc., priority 2013, dated 2017)

Amino acid sequences for entries named in this document (tags omitted). Residues count along the entry.
UniProt P56524, 648-1032: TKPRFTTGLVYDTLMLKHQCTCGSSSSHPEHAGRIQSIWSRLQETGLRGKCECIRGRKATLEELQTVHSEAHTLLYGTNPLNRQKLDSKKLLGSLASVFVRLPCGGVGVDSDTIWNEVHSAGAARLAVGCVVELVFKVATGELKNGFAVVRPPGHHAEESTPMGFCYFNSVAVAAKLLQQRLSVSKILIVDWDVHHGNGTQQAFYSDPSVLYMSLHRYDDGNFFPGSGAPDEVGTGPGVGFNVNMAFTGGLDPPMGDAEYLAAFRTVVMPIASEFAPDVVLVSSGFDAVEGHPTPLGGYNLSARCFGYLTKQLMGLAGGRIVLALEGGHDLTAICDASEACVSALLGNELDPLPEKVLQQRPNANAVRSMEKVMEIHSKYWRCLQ

Target: human catalytic domain HDAC4 protein (amino acids 648-1032) (Homo sapiens (Human), UniProt P56524)
Assay: Inhibition of HDAC4 catalytic domain enzymatic activity, fluorogenic substrate Boc-Lys(Tfa)-AMC
Conditions: HDAC4 catalytic domain enzyme, read-out: Biochemical HDAC4 IC50
Description: Analysis of Inhibition of HDAC4 with Class IIa Histone Deacetylase (HDAC) Inhibitors
The potency of Class IIa Histone Deacetylase (HDAC) inhibitors is quantified by measuring the Histone Deacetylase 4 (HDAC4) catalytic domain enzymatic activity using the fluorogenic substrate, Boc-Lys(Tfa)-AMC. The substrate is deacetylated to Boc-Lys-AMC by HDAC4. Cleavage by trypsin results in the release of the fluorophore AMC from the deacetylated substrate. The fluorescence of the sample is directly related to the histone deacetylase activity in the sample.
Serially dilute HDAC inhibitor compounds. […] Stocks of 6 μl aliquots of the 10 mM compound in DMSO are prepared and stored at […]. From one stock aliquot of each compound to be tested and the reference compound, a 16-point serial dilution is prepared according to Table 1 using a 125 μl 16-channel Matrix multi-channel pipette (Matrix Technologies Ltd).
2 μl (200×) of each diluted solution and each control (full activity: 100% DMSO alone or full inhibition 1 mM) is stamped into V-bottomed polypropylene 384-well compound plates using either the Bravo (384-well head from Agilent) or 12.5 μl 16-channel Matrix multi-channel pipette (Matrix Technologies Ltd).
Prepare HDAC4 catalytic domain enzyme (0.2 μg/mL).
Prepare 5× ([…]) Boc-Lys(Tfa)-AMC Substrate. 5× (50 μM) substrate is prepared just prior to the addition to the assay. A 1 mM substrate stock is made by diluting a 100 mM Boc-Lys(Tfa)-AMC in DMSO solution 1:100 by adding it drop-wise to assay buffer (equilibrated to r.t.) while vortexing at slow speed to prevent precipitation. The 5× substrate is prepared by diluting the 1 mM substrate solution 1:20 by adding it drop-wise to assay buffer (equilibrated to r.t.) while vortexing at slow speed to prevent precipitation.
Prepare 3× (30 μM) Developer/Stop Solution.
Assay. 5 μl of each solution of 1:20 diluted compound from above is transferred to a clear bottomed, black, 384-well assay plate using the Bravo or the Janus (384-well MDT head from Perkin Elmer). Using a 16-channel Matrix multi-channel pipette, 35 μl of the working solution of HDAC4 catalytic domain enzyme (0.2 μg/mL in assay buffer) is transferred to the assay plate. […] The assay plate is then shaken for two minutes on an orbital shaker at 900 rpm (rotations per minute). Next the plate is incubated for 15 minutes at 37° C. The reaction is stopped by adding 25 μl of 3× (3 μM) developer/stop solution to the assay plates using either the Bravo, Janus or a 16-channel Matrix multi-channel pipette. Assay plates are then shaken for 5 minutes on an orbital shaker at 1200 rpm. Next, the assay plates are incubated at 37° C. for 1 hour in a tissue culture incubator.

IC50 [nM] | SMILES
170 | Cc1ccccc1[C@H]1CC[C@@](C(=O)NO)(c2cccc(F)c2C)C1 (relative stereo) [Example 8, (±)-(1S*,3S*)1-(3-fluoro-2-methylphenyl)-N-hydroxy-3-(o-tolyl)cyclopentane carboxamide]
140 | Cc1c(F)cccc1[C@]1(C(=O)NO)CC[C@@H](c2cnn(CCN3CCOCC3)c2)C1 (relative stereo) [Example 47, (1S,3R*)-1-(3-fluoro-2-methylphenyl)-N-hydroxy-3-(1-(2-morpholinoethyl)-1H-pyrazol-4-yl)cyclopentanecarboxamide]
82 | CCN(CC)CCn1cc([C@@H]2CC[C@@](C(=O)NO)(c3cccc(F)c3C)C2)cn1 (relative stereo) [Example 51, (1S,3R*)-3-(1-(2-(diethylamino)ethyl)-1H-pyrazol-4-yl)-1-(3-fluoro-2-methylphenyl)-N-hydroxycyclopentanecarboxamide]
200 | CCCN(CCC)C[C@@H](C)NC(=O)c1ccc([C@@H]2CC[C@@](C(=O)NO)(c3cccc(F)c3C)C2)cc1 (relative stereo) [Example 52, N—((R)-1-(dipropylamino)propan-2-yl)-4-((1R*,3S)-3-(3-fluoro-2-methylphenyl)-3-(hydroxycarbamoyl)cyclopentyl)benzamide]
160 | CCCN(CCC)C[C@@H](C)NC(=O)c1ccc([C@H]2CC[C@@](C(=O)NO)(c3cccc(F)c3C)C2)cc1 (relative stereo) [Example 53, N—((R)-1-(dipropylamino)propan-2-yl)-4-((1S*,3S)-3-(3-fluoro-2-methylphenyl)-3-(hydroxycarbamoyl)cyclopentyl)benzamide]
140 | Cc1c(F)cccc1[C@]1(C(=O)NO)CC[C@@H](c2ccc3c(c2)CN(C2CC2)C3=O)C1 (relative stereo) [Example 59, (1S,3R*)-3-(2-cyclopropyl-1-oxoisoindolin-5-yl)-1-(3-fluoro-2-methylphenyl)-N-hydroxycyclopentanecarboxamide]
290 | Cc1c(F)cccc1[C@]1(C(=O)NO)CC[C@H](c2ccc3sc(C4CC4)nc3c2)C1 (relative stereo) [Example 79, (1S,3S*)-3-(2-Cyclopropylbenzo[d]thiazol-5-yl)-1-(3-fluoro-2-methylphenyl)-N-hydroxycyclopentanecarboxamide]
330 | Cc1c(F)cccc1[C@]1(C(=O)NO)CC[C@@H](c2ccc3sc(C4CC4)nc3c2)C1 (relative stereo) [Example 80, (1 S,3R*)-3-(2-Cyclopropylbenzo[c]thiazol-5-yl)-1-(3-fluoro-2-methylphenyl)-N-hydroxycyclopentanecarboxamide]
90 | Cc1c([C@]2(C(=O)NO)CC[C@@H](c3ccc4cnn(C)c4c3)C2)ccc(F)c1F (relative stereo) [Example 86, (1S,3R*)-1-(3,4-difluoro-2-methylphenyl)-N-hydroxy-3-(1-methyl-1H-indazol-6-yl)cyclopentanecarboxamide]
> 50000 | Cc1c(F)cccc1[C@]1(C(=O)NO)CC[C@H](N2CCCC2)C1 (relative stereo) [Example 88, (1 S,3S*)-1-(3-fluoro-2-methylphenyl)-N-hydroxy-3-(pyrrolidin-1-yl)cyclopentanecarboxamide]
